Results on one compound are retold here after patent US20040092531A1.

This assay has as its system neuropathic pain (allodynia against cold) in male Sprague-Dawley rats. Put plainly: Bennett test on rats (cold allodynia on 4° C. metal plate). To be noted: intravenous, ketamine 4.64 mg/kg, then fades away, FIG. 1.

As for `CNC1(c2ccccc2Cl)CCCCC1=O` (stereo not shown), the “period for which the analgesic effect lasts” value is reported as “about 3 hours”.
